By UniProt entry, the sequences of proteins in these tests, tags left out. Residues count along the entry.
UniProt P00533, 25-1210 T790M/L858R limits assumed: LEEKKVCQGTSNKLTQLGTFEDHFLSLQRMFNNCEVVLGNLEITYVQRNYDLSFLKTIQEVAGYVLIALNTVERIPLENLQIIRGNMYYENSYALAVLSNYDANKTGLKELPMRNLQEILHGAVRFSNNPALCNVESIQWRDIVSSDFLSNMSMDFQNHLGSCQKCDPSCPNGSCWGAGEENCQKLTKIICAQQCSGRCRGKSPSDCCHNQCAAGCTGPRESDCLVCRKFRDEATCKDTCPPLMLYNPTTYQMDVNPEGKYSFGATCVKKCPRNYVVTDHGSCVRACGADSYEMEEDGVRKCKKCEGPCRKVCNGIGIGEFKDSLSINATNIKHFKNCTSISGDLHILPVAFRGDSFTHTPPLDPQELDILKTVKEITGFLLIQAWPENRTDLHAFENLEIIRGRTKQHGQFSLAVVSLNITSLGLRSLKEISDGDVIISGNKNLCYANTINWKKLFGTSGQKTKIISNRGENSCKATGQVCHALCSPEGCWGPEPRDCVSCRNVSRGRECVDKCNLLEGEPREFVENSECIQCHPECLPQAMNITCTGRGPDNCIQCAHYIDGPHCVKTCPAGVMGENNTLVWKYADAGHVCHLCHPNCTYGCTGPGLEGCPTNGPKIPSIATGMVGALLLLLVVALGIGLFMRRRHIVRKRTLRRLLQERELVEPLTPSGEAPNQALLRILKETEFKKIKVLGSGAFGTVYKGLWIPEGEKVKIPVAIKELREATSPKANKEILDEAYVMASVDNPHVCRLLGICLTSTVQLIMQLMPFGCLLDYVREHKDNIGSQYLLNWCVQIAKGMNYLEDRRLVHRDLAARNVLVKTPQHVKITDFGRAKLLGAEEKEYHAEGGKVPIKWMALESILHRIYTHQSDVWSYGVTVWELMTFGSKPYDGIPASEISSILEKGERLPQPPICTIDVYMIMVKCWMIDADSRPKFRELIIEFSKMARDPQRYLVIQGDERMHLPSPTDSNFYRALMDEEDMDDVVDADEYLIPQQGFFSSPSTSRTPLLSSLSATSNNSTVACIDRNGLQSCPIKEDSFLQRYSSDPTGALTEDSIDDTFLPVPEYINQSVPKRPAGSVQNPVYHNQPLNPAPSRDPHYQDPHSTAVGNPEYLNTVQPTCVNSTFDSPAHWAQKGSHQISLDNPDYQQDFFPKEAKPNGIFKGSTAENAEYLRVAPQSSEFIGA

According to patent US9890152B2 (Genentech, Inc., priority 2012, dated 2018):

The compounds below were run on H1975 (EGFR T790M/L858R) cell proliferation (assay: H1975 proliferation assay (Cell Titer-Glo)). Settings: Homo sapiens, NCI-H1975 cells, 72 hour, read-out: H1975 antiproliferative EC50.
Format: cell-based

SMILES | EC50
CCC(C)n1cc(C(=O)NC2CCOCC2)c2cnc(Nc3ccnc(N4CCC(O)C(C)(C)C4)n3)cc21 (mixture of isomers) [Example 383, 1-(sec-butyl)-6-((2-(4-hydroxy-3,3-dimethylpiperidin-1-yl)pyrimidin-4-yl)amino)-N-(tetrahydro-2H-pyran-4-yl)-1H-pyrrolo[3,2-c]pyridine-3-carboxamide] | 1.27 µM
C[C@H](n1c([C@@H](C)O)nc2cnc(Nc3ccnc(N4CCC(O)C(F)C4)n3)cc21)C(F)(F)F (mixture of isomers) [Example 296, cis-3-Fluoro-1-{4-[2-((R)-1-hydroxyethyl)-1-((S)-2,2,2-trifluoro-1-methylethyl)-1H-imidazo[4,5-c]pyridin-6-ylamino]pyrimidin-2-yl}piperidin-4-ol] | 0.783 µM
CC(C)n1c(C2CCCO2)nc2cnc(Nc3ccnc(-c4cnn(S(=O)(=O)C5CC5)c4)n3)cc21 (racemic) [Example 565, (±)-[2-(1-Cyclopropanesulfonyl-1H-pyrazol-4-yl)-pyrimidin-4-yl]-[1-isopropyl-2-(tetrahydro-furan-2-yl)-1H-imidazo[4,5-c]pyridin-6-yl]amine] | 2.52 µM
CCNC(=O)c1cn(C(C)CC)c2cc(Nc3ccnc(N4CC[C@@H](O)[C@@H](F)C4)n3)ncc12 (single isomer, unassigned) [Example 369] | 0.581 µM
CCC(C)n1cc(C(=O)NC2CCOCC2)c2cnc(Nc3ccnc(N4CC[C@@H](OC)[C@@H](F)C4)n3)cc21 (single isomer, unassigned) [Example 376] | 0.139 µM
CCC(C)n1cc(C(=O)NC2CCOCC2)c2cnc(Nc3ccnc(-c4cnn(S(=O)(=O)C5CC5)c4)n3)cc21 (single isomer, unassigned; (-)) [Example 322, (−)-1-(sec-butyl)-6-((2-(1-(cyclopropylsulfonyl)-1H-pyrazol-4-yl)pyrimidin-4-yl)amino)-N-(tetrahydro-2H-pyran-4-yl)-1H-pyrrolo[3,2-c]pyridine-3-carboxamide] | 0.487 µM
COC1CCN(c2nccc(Nc3cc4c(cn3)nc(C)n4C(C)C)n2)CC1 [Example 5, (1-Isopropyl-2-methyl-1H-imidazo[4,5-c]pyridin-6-yl)-[2-(4-methoxypiperidin-1-yl)pyrimidin-4-yl]amine] | 7.01 µM
COC1CCN(c2nccc(Nc3cc4c(cn3)nc(COCCN(C)C)n4C(C)C)n2)CC1 [Example 8, [2-(2-Dimethylaminoethoxymethyl)-1-isopropyl-1H-imidazo[4,5-c]pyridin-6-yl]-[2-(4-methoxypiperidin-1-yl)pyrimidin-4-yl]amine] | 6.26 µM

These compounds were tested against EGFR T790M L858R (Homo sapiens, UniProt P00533, L858R/T790M) (assay: biochemical). Settings: EGFR(T790M/L858R) Ki (μM), 5 μM ATP, 30 min, room temperature; apparent Ki (Morrison) converted by Cheng-Prusoff, Km of ATP 1.3 μM.

SMILES | Ki
CCC(C)n1cc(C(=O)NC2CCOCC2)c2cnc(Nc3ccnc(N4CCC(O)C(C)(C)C4)n3)cc21 (mixture of isomers) [Example 383, 1-(sec-butyl)-6-((2-(4-hydroxy-3,3-dimethylpiperidin-1-yl)pyrimidin-4-yl)amino)-N-(tetrahydro-2H-pyran-4-yl)-1H-pyrrolo[3,2-c]pyridine-3-carboxamide] | 0.000842 µM
C[C@H](n1c([C@@H](C)O)nc2cnc(Nc3ccnc(N4CCC(O)C(F)C4)n3)cc21)C(F)(F)F (mixture of isomers) [Example 296, cis-3-Fluoro-1-{4-[2-((R)-1-hydroxyethyl)-1-((S)-2,2,2-trifluoro-1-methylethyl)-1H-imidazo[4,5-c]pyridin-6-ylamino]pyrimidin-2-yl}piperidin-4-ol] | 0.00225 µM
CC(C)n1c(C2CCCO2)nc2cnc(Nc3ccnc(-c4cnn(S(=O)(=O)C5CC5)c4)n3)cc21 (racemic) [Example 565, (±)-[2-(1-Cyclopropanesulfonyl-1H-pyrazol-4-yl)-pyrimidin-4-yl]-[1-isopropyl-2-(tetrahydro-furan-2-yl)-1H-imidazo[4,5-c]pyridin-6-yl]amine] | 0.00879 µM
CCNC(=O)c1cn(C(C)CC)c2cc(Nc3ccnc(N4CC[C@@H](O)[C@@H](F)C4)n3)ncc12 (single isomer, unassigned) [Example 369] | 0.00163 µM
CCC(C)n1cc(C(=O)NC2CCOCC2)c2cnc(Nc3ccnc(N4CC[C@@H](OC)[C@@H](F)C4)n3)cc21 (single isomer, unassigned) [Example 376] | 0.000695 µM
CCC(C)n1cc(C(=O)NC2CCOCC2)c2cnc(Nc3ccnc(-c4cnn(S(=O)(=O)C5CC5)c4)n3)cc21 (single isomer, unassigned; (-)) [Example 322, (−)-1-(sec-butyl)-6-((2-(1-(cyclopropylsulfonyl)-1H-pyrazol-4-yl)pyrimidin-4-yl)amino)-N-(tetrahydro-2H-pyran-4-yl)-1H-pyrrolo[3,2-c]pyridine-3-carboxamide] | 0.00101 µM
COC1CCN(c2nccc(Nc3cc4c(cn3)nc(C)n4C(C)C)n2)CC1 [Example 5, (1-Isopropyl-2-methyl-1H-imidazo[4,5-c]pyridin-6-yl)-[2-(4-methoxypiperidin-1-yl)pyrimidin-4-yl]amine] | 0.0177 µM
COC1CCN(c2nccc(Nc3cc4c(cn3)nc(COCCN(C)C)n4C(C)C)n2)CC1 [Example 8, [2-(2-Dimethylaminoethoxymethyl)-1-isopropyl-1H-imidazo[4,5-c]pyridin-6-yl]-[2-(4-methoxypiperidin-1-yl)pyrimidin-4-yl]amine] | 0.0244 µM
CO[C@H]1CCN(c2nccc(Nc3cc4c(cn3)nc(CO)n4C(C)C)n2)C[C@H]1F [Example 655] | 0.0047 µM
Cc1nc2cnc(Nc3ccnc(OCC(C)(C)S(C)(=O)=O)n3)cc2n1C(C)C [Example 656] | 0.0507 µM
CO[C@@H]1CCN(c2nccc(Nc3cc4c(cn3)nc(CO)n4[C@@H](C)C(F)(F)F)n2)C[C@@H]1F [Example 657] | 0.00164 µM
CC(C)n1c([C@@H](C)O)nc2cnc(Nc3ccnc(N4CC[C@@H](O)[C@@H](F)C4)n3)cc21 [Example 658] | 0.00784 µM
CO[C@@H]1CCN(c2nccc(Nc3cc4c(cn3)nc([C@@H](C)O)n4C(C)C)n2)C[C@@H]1F [Example 659] | 0.00354 µM
CC(C)n1c(CO)nc2cnc(Nc3ccnc(OCC(C)(C)S(C)(=O)=O)n3)cc21 [Example 660] | 0.0454 µM
CC(C)n1c(CO)nc2cnc(Nc3ccnc(N4CCC(S(C)(=O)=O)CC4)n3)cc21 [Example 661] | 0.0897 µM
C[C@H](n1c([C@@H](C)O)nc2cnc(Nc3ccnc(N4CCC(S(C)(=O)=O)CC4)n3)cc21)C(F)(F)F [Example 662] | 0.00817 µM
C[C@H](n1c([C@@H](C)O)nc2cnc(Nc3ccnc(NCC(C)(C)S(C)(=O)=O)n3)cc21)C(F)(F)F [Example 663] | 0.0122 µM
CC(C)n1cc(C(=O)NC2CCOCC2)c2cnc(Nc3ccnc(NCC(C)(C)S(C)(=O)=O)n3)cc21 [Example 664] | 0.00617 µM
COC1(CO)CCN(c2nccc(Nc3cc4c(cn3)nc([C@@H](C)O)n4[C@@H](C)C(F)(F)F)n2)CC1 [Example 665] | 0.00331 µM
C[C@H](n1c(CO)nc2cnc(Nc3ccnc(N4CC[C@@H](O)[C@@H](F)C4)n3)cc21)C(F)(F)F [Example 666] | 0.00318 µM

SMILES | Ki
C[C@H](n1c(CO)nc2cnc(Nc3ccnc(N4CC[C@H](O)[C@H](F)C4)n3)cc21)C(F)(F)F [Example 667] | 0.00336 µM
CC(C)n1c(CO)nc2cnc(Nc3ccnc(N4CCCCC4CCO)n3)cc21 (stereo not shown) [Example 668] | 0.345 µM
CC(C)n1c(CO)nc2cnc(Nc3ccnc(N4CCC(O)(C(F)(F)F)CC4)n3)cc21 [Example 669] | 0.149 µM
CC(C)n1c(CO)nc2cnc(Nc3ccnc(N4CCCCC4CO)n3)cc21 (stereo not shown) [Example 670] | 0.193 µM
CCc1ncc(-c2nccc(Nc3cc4c(cn3)nc(CO)n4C(C)C)n2)s1 [Example 671] | 0.00622 µM
Cc1nc2cnc(Nc3ccnc(N4CC[C@](C)(O)[C@H](F)C4)n3)cc2n1C(C)C [Example 672] | 0.0254 µM
CO[C@@]1(C)CCN(c2nccc(Nc3cc4c(cn3)nc(C)n4C(C)C)n2)C[C@H]1F [Example 673] | 0.00554 µM
Cc1nc2cnc(Nc3ccnc(N4CC[C@@](C)(O)[C@H](F)C4)n3)cc2n1C(C)C [Example 674] | 0.0254 µM
CC(C)n1c(CO)nc2cnc(Nc3ccnc(N4CC[C@@](C)(O)[C@H](F)C4)n3)cc21 [Example 675] | 0.0372 µM
C[C@H](n1c([C@@H](C)O)nc2cnc(Nc3ccnc(N4CC[C@](C)(O)[C@H](F)C4)n3)cc21)C(F)(F)F [Example 676] | 0.00358 µM
Cc1nc2cnc(Nc3ccnc(N4CCC(F)(F)CC4)n3)cc2n1C(C)C [Example 677] | 0.0783 µM
Cc1nc2cnc(Nc3ccnc(N4CC[C@@H](C#N)C4)n3)cc2n1C(C)C [Example 678] | 0.141 µM
Cc1nc2cnc(Nc3ccnc(N4CC[C@H](C#N)C4)n3)cc2n1C(C)C [Example 679] | 0.112 µM
Cc1nc2cnc(Nc3ccnc(N4CC[C@@H](O)C4)n3)cc2n1C(C)C [Example 680] | 0.297 µM
Cc1nc2cnc(Nc3ccnc(N4CC[C@H](O)C4)n3)cc2n1C(C)C [Example 681] | 0.165 µM
Cc1nc2cnc(Nc3ccnc(N4CCC(C)(O)CC4)n3)cc2n1C(C)C [Example 682] | 0.0436 µM
C[C@H](n1c([C@@H](C)O)nc2cnc(Nc3ccnc(N4CCC(C)(O)CC4)n3)cc21)C(F)(F)F [Example 683] | 0.00511 µM
CO[C@H]1CCN(c2nccc(Nc3cc4c(cn3)nc([C@H](C)O)n4[C@@H](C)C(F)(F)F)n2)C[C@H]1F [Example 684] | 0.00274 µM
C[C@H](O)c1nc2cnc(Nc3ccnc(N4CC[C@@H](O)[C@@H](F)C4)n3)cc2n1[C@@H](C)C(F)(F)F [Example 685] | 0.00558 µM
C[C@H](O)c1nc2cnc(Nc3ccnc(N4CC[C@H](O)[C@H](F)C4)n3)cc2n1[C@@H](C)C(F)(F)F [Example 686] | 0.00577 µM

SMILES | Ki
C[C@@H](O)c1nc2cnc(Nc3ccnc(N4CC[C@@H](O)[C@@H](F)C4)n3)cc2n1[C@H](C)C(F)(F)F [Example 687] | 0.0159 µM
C[C@@H](O)c1nc2cnc(Nc3ccnc(N4CC[C@H](O)[C@H](F)C4)n3)cc2n1[C@H](C)C(F)(F)F [Example 688] | 0.0208 µM
C[C@H](O)c1nc2cnc(Nc3ccnc(N4CC[C@@H](O)[C@@H](F)C4)n3)cc2n1[C@H](C)C(F)(F)F [Example 689] | 0.0464 µM
C[C@H](O)c1nc2cnc(Nc3ccnc(N4CC[C@H](O)[C@H](F)C4)n3)cc2n1[C@H](C)C(F)(F)F [Example 690] | 0.0609 µM
CC(C)n1c(CO)nc2cnc(Nc3ccnc(N4C[C@@H]5C[C@H]4CO5)n3)cc21 [Example 691] | 0.219 µM
CC(C)n1c(CO)nc2cnc(Nc3ccnc(N4CC5CC4C5)n3)cc21 [Example 692] | 0.119 µM
CC(C)n1c(CO)nc2cnc(Nc3ccnc(N4CCC5(CC4)CNC(=O)CO5)n3)cc21 [Example 693] | 0.0976 µM
O=C1CC(n2c(CO)nc3cnc(Nc4ccnc(-c5cnn(S(=O)(=O)C6CC6)c5)n4)cc32)CN1 (stereo not shown) [Example 694] | 0.993 µM
COCCC(C)(C)n1c(CO)nc2cnc(Nc3ccnc(-c4cnn(S(=O)(=O)C5CC5)c4)n3)cc21 [Example 695] | 0.0418 µM
CC(CC(F)(F)F)n1c(CO)nc2cnc(Nc3ccnc(-c4cnn(S(=O)(=O)C5CC5)c4)n3)cc21 (stereo not shown) [Example 696] | 0.0101 µM
CC1CCC(n2c(CO)nc3cnc(Nc4ccnc(-c5cnn(S(=O)(=O)C6CC6)c5)n4)cc32)C1 (stereo not shown) [Example 697] | 0.0198 µM
CC1CC1n1c(CO)nc2cnc(Nc3ccnc(-c4cnn(S(=O)(=O)C5CC5)c4)n3)cc21 (stereo not shown) [Example 698] | 0.0106 µM
CO[C@@H]1CCN(c2nccc(Nc3cc4c(cn3)nc(CO)n4C(C)C)n2)C[C@H]1C [Example 699] | 0.0659 µM
CCC(C)n1cc(C(=O)NC2COCCOC2)c2cnc(Nc3ccnc(-c4cnn(S(=O)(=O)C5CC5)c4)n3)cc21 (stereo not shown) [Example 700] | 0.0017 µM
C[C@H](n1c([C@@H](C)O)nc2cnc(Nc3ccnc(N4C[C@@H](F)[C@@H](O)[C@@H](F)C4)n3)cc21)C(F)(F)F [Example 701] | 0.00235 µM
CC(C)n1c(CO)nc2cnc(Nc3ccnc(N4CC[C@H](O)[C@@](C)(F)C4)n3)cc21 [Example 702] | 0.0912 µM
CCC(C)n1cc(C(=O)NCCO)c2cnc(Nc3ccnc(-c4cnn(S(=O)(=O)C5CC5)c4)n3)cc21 (stereo not shown) [Example 703] | 0.00264 µM
CCC(C)n1cc(C(=O)NCC(F)(F)F)c2cnc(Nc3ccnc(-c4cnn(S(=O)(=O)C5CC5)c4)n3)cc21 (stereo not shown) [Example 704] | 0.00344 µM
CCC(C)n1cc(C(=O)NC2CCC(O)CC2)c2cnc(Nc3ccnc(-c4cnn(S(=O)(=O)C5CC5)c4)n3)cc21 (stereo not shown) [Example 705] | 0.00251 µM
